Experimental data taken from patent US20040266791A1 (priority 2003, published 2004).
Where a name gives a salt, the structure may show the parent alone. Read-outs that look alike come from different tables or passages of the source.

What was measured:
[1] = in water at 20° C., calculated on free base
physchem = conditions: water, 20 °C, thermodynamic from solid, water at about 20° C.
[2] = reported in U.S. Pat. No. 5,616,587; cited from earlier work

Row | SMILES | solubility (calc. on free base) [1] | other results
1 | CC(O)C(=O)O.Cc1nc2n(c(=O)c1CCN1CCC(c3noc4cc(F)ccc34)CC1)CCCC2 [Risperidone (L)lactate] | 12 mg/mL | –
2 | Cc1nc2n(c(=O)c1CCN1CCC(c3noc4cc(F)ccc34)CC1)CCCC2.O=C(O)C(O)c1ccccc1 [Risperidone (R)-mandelate] | 9.3 mg/mL | –
3 | Cc1nc2n(c(=O)c1CCN1CCC(c3noc4cc(F)ccc34)CC1)CCCC2 [Risperidone dihydrochloride] | – | solubility (calc. on free base) ([1]; dihydrochloride): 84 mg/mL; solubility (physchem): > 80 mg/mL
4 | Cc1nc2n(c(=O)c1CCN1CCC(c3noc4cc(F)ccc34)CC1)CCCC2.Cc1nc2n(c(=O)c1CCN1CCC(c3noc4cc(F)ccc34)CC1)CCCC2.O=S(=O)(O)CCS(=O)(=O)O [Risperidone hemiedisylate] | 63 mg/mL | –
5 | Cc1nc2n(c(=O)c1CCN1CCC(c3noc4cc(F)ccc34)CC1)CCCC2.O=C(O)C=CC(=O)O [Risperidone hydrogenmaleate] | 39 mg/mL | –
6 | Cc1nc2n(c(=O)c1CCN1CCC(c3noc4cc(F)ccc34)CC1)CCCC2 [Risperidone monohydrochloride] | – | solubility (calc. on free base) ([1]; monohydrochloride): 7.3 mg/mL
7 | Cc1nc2n(c(=O)c1CCN1CCC(c3noc4cc(F)ccc34)CC1)CCCC2 [risperidone hydrochloride] | – | room temperature solubility [2]: about 19.6 mg/ml
